What was measured:
[1] = system: human acute monocytic leukemia cell strain MV4-11 (expressing FLT3/ITD mutant gene); test: Effects on proliferation of tumor cells (Cell Titer-Glo), MV4-11; details: read-out: IC50 (μM), proliferation of cells, MV4-11, MV4-11, incubated for 72 hours, tested form: phosphate
Text: (§1) This example tested the effects of the compounds of the present invention (the compound shown in Formula (I), hydrochloride salt, phosphate, mesylate, lactate, acetate, sulphate, and hydrobromide thereof prepared in EXAMPLES 1-8 respectively) on proliferation of tumor cells, and further evaluated the inhibitory effects of the compounds on proliferation of tumor cells and selectivity of the compounds in inhibiting proliferation of tumor cells.
(1) human acute monocytic leukemia cell strain MV4-11 (expressing FLT3/ITD mutant gene);
(§2) The compounds at different concentration (0.000508 μM, 0.00152 μM, 0.00457 μM, 0.0137 μM, 0.0411 μM, 0.123 μM, 0.370 μM, 1.11 μM, 3.33 μM, 10 μM in DMSO) were added to the above-mentioned cells respectively, incubated for 72 hours, Cell Titer-Glo (Promega, United States of America) Chemiluminescence Kit was used to quantify ATP in living cells to detect the number of living cells, the results were shown as Table 3

Amino acid sequences for entries named in this document (tags omitted). Residues count along the entry.
UniProt P36888, 27-993 limits assumed: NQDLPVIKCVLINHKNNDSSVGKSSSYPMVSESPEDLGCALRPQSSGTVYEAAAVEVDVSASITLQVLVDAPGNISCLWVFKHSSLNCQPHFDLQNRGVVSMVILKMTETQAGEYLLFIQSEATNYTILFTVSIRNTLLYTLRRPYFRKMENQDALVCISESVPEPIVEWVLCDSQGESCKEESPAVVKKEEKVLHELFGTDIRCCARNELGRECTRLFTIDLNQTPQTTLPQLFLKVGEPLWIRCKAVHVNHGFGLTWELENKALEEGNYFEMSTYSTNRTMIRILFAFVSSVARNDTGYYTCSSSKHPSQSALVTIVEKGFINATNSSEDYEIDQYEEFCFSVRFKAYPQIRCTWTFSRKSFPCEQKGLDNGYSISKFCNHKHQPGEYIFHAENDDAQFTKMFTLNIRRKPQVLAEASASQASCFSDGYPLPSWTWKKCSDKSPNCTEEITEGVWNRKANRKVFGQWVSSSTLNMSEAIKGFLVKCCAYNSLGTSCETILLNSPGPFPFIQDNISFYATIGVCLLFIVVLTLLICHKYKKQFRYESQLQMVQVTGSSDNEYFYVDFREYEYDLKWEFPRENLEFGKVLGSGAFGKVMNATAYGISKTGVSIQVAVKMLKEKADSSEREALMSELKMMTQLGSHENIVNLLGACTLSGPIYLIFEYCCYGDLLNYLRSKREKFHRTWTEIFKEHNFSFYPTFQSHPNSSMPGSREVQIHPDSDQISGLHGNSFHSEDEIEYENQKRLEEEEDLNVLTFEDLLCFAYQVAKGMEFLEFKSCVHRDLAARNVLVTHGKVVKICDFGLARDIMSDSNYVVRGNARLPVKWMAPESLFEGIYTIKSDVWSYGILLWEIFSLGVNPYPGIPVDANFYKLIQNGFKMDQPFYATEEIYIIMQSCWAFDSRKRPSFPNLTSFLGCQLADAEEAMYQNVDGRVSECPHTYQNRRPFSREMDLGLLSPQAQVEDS

[2] = target: FLT3 kinase (Homo sapiens, UniProt P36888); test: Activity of inhibiting FLT3 kinase (fluorescein labeled peptide kinase assay); details: read-out: FLT3 (IC50); in vitro kinase assay, 28° C.; tested form: phosphate
Procedure: Activity of Inhibiting FLT3 Kinase
1. Preparation of 1 × Kinase Buffer and Termination Buffer:
(1) MnCl2-free 1× kinase buffer: 50 mM HEPES, pH 7.5, 0.0015% Brij-35, 10 mM MgCl2, 2 mM DTT;
(2) Termination buffer: 100 mM HEPES, pH 7.5, 0.015% Brij-35, 0.2% Coating Reagent #3, 50 mM EDTA.
2. Preparation of compounds for testing kinase: the compounds are diluted continuously.
(1) the compound was diluted to 50 times the maximum final concentration with 100% DMSO. […] of the solution containing the compound at this concentration was transferred to one hole of 96-well plate;
(2)10 concentrations of compounds were prepared by diluting 20 mL original solution with 60 mL DMSO;
(3) […] solution of 100% DMSO was added into two empty holes as compound-free control and enzyme-free control; (4) a transitional plate was prepared, 10 mL compounds at different concentrations were transferred from the original plate to the transitional plate respectively, 90 mL 1× kinase buffer was added, and then mixed under oscillation for 10 minutes;
(5) preparation of an experimental plate: 5 mL solution containing compounds was transferred from the hole of the transitional plate of the 96-well plate to the corresponding hole of 384-well plate.
(1) Preparation of 2.5× enzyme solution: enzyme was added to the 1× kinase buffer; […]
Data was read and collected.
(1) detected data was copied and converted […]

[3] = system: mouse TEL-BaF3-FLT3/ITD (stably expressing FLT3/ITD mutant activated kinase); test: Effects on proliferation of cells (Cell Titer-Glo), TEL-BaF3-FLT3/ITD; details: read-out: IC50 (μM), proliferation of cells, TEL-BaF3-FLT3/ITD, incubated for 72 hours, tested form: phosphate
Text: as §1
(6) mouse TEL-BaF3-FLT3/ITD (stably expressing FLT3/ITD mutant activated kinase);
as §2

[4] = system: mouse TEL-FLT3-BaF3 (stably expressing FLT3 kinase); test: Effects on proliferation of cells (Cell Titer-Glo), TEL-FLT3-BaF3; details: read-out: IC50 (μM), proliferation of cells, TEL-FLT3-BaF3, TEL-FLT3-BaF3, incubated for 72 hours, tested form: phosphate
Text: as §1
(8) mouse TEL-FLT3-BaF3 (stably expressing FLT3 kinase);
as §2

[5] = system: human acute myeloid leukemia cell strain U937 (expressing wild-type FLT3 gene); test: Effects on proliferation of tumor cells (Cell Titer-Glo), U937; details: read-out: IC50 (μM), proliferation of cells, U937, U937, incubated for 72 hours, tested form: phosphate
Text: as §1
(5) human acute myeloid leukemia cell strain U937 (expressing wild-type FLT3 gene);
as §2

[6] = system: subcutaneous xenograft tumor of human MV-4-11; test: Therapeutic effects on subcutaneous xenograft tumor of human MV-4-11 in nude mice; details: MV-4-11 subcutaneous xenograft, 15 mg/kg intraperitoneal injection, 3 times a day for 21 days, tested form: phosphate
Procedure: Preparation of test samples: all samples were prepared with 5% anhydrous ethanol, 5% Cremophor EL and 90% physiological saline.
Animals: BALB/cA-nude mice, 6-7 weeks, female ♀ purchased from Shanghai Lingchang Biotechnology Co., Ltd. Production license number was SC×K(Hu)2013-0018; animal certification number was 2013001810589.
Feeding environment: SPF Level.
Experiment steps: human acute myeloid leukemia cells MV-4-11 were inoculated subcutaneously in nude mice, after the tumor grows to 80-150 mm^3, animals were randomly divided into groups with 6 mice each group. The dosage was 15 mg/kg, the drugs were administrated by intraperitoneal injection, 3 times a day for 21 days. The volume of tumor was measured, the weight of mouse was weighed and the data were recorded.
The formula for calculating the volume of tumor (V) was: […]
Wherein a and b represented length and width respectively.
T/C (%)=(T−T0)/(C−C0)×100
Wherein T and C were the volume of tumor when the experiment was completed; T0 and C0 were the volume of tumor when the experiment was started.
The inhibited rate of tumor was calculated, the results were shown as Table 4.

IC50 [1]: 0.33 µM
IC50 [2]: 17 nM
IC50 [3]: 0.03 µM
IC50 [4]: 0.02 µM
IC50 [5]: 6.43 µM
SMILES: Nc1sc(-c2c(F)cccc2F)nc1C(=O)Nc1cncnc1OCC1CCNCC1
Inhibited Rate of Tumor (%) [6]: 69%
